The test system of this assay is human colon cancer cell line (HCT116). Nature of the assay: THP-1-mediated phagocytic activity against HCT116, anti-CAPRIN-1, anti-CD20 or anti-HER-2 antibody alone or with palbociclib (Example 4). Type of assay: cell-based. The procedure: Specifically, in the palbociclib combination test group, the indicated palbociclib was applied to human cancer cells, and then the cancer cells were cocultured with human monocytic cells (THP-1) in the presence of the anti-CAPRIN-1 antibody, anti-CD20 antibody or anti-HER-2 antibody at 1 M, and the antibody-mediated phagocytic activity against the cancer cells by THP-1 was evaluated.
The human-derived cancer cell used was a colon cancer cell line HCT116. On a 6-well plate, the human-derived cancer cells were cultured for 2 days in the presence of the respective drugs used in combination for the palbociclib combination test group. Specifically, palbociclib was added at a concentration of 10 μM to HCT 116. As a control, a test group without a drug used in combination, in which only the anti-CAPRIN-1 antibody, anti-CD20 antibody or anti-HER-2 antibody was added, was established. In the control group, the cancer cells were cultured for 2 days without addition of palbociclib beforehand.
Each cancer cell line after the culture was dissociated with TrypLE Express (Thermo), and the cancer cells were stained by the addition of calcein-AM at a final concentration of 0.04 μg/mL and incubation at 37° C. for 10 minutes. Next, the cells were dispensed at 1×10^4 cancer cells per well to a 96-well plate, and the anti-CAPRIN-1 antibody, anti-CD20 antibody or anti-HER-2 antibody at a final concentration of 1 μg/mL and 10×10^5 THP-1 cells were added to each well, followed by culture at 37° C. for 1 hour under a condition of 5% CO2. […] Further, dead cells were stained with propidium iodide (PI) (final concentration: 0.1 μg/mL), followed by the measurement of fluorescence from the cells by flow cytometry. […] Thus, the phagocytic activity in this evaluation system was calculated as the ratio (%) of APC-positive/calcein-AM-positive cells to the whole calcein-AM-positive population.

A value given as a limit tells only on which side of the number the result lay.

Consider “anti-HER-2 antibody: anti-HER-2 antibody ("Herceptin") purchased from Chugai Pharmaceutical Co., Ltd.”, for which the “effect of palbociclib combination on phagocytic activity compared with antibody without a drug used in combination” value (palbociclib 10 μM, Dunnett's test, FIG. 4) is “not remarkably increased”. The “phagocytic activity against cancer cells” value reads like this: (palbociclib combination test group: HCT116 cultured 2 days with palbociclib 10 μM, then antibody at final concentration 1 μg/mL + THP-1, 1 h) at most 18%; (test group without a drug used in combination: antibody only, 1 μg/mL + THP-1, 1 h) at most 10%.

The record behind these values is patent US20260158136A1, “MEDICAMENT FOR TREATMENT AND/OR PREVENTION OF CANCER” (TORAY INDUSTRIES, INC., priority 2022, published 2026).
